In the experiment the target is T1, human S6K1 (RPS6KB1) protein, residues 1–421 with the T412E mutation (Homo sapiens, UniProt P23443, T412E).
T1 construct: the human S6K1 (RPS6KB1) protein, residues 1–421 with the T412E mutation; purchased Carna Biosciences (Kobe, Japan)
Briefly: Kinase mobility shift assay. Type of experiment: biochemical. The note with it: S6K1 residues 1–421, T412E mutation; 2 nM enzyme; 30 min pre-incubation; ATP 0.5 mM; FL-Peptide 26 1.5 μM. The protocol: The mobility shift assay was performed as reported. Briefly, the reaction buffer consisted of 50 mM Hepes (pH 7.4), containing 10 mM MgCl2, 0.01 %(w/v) Brij-35, 1 mM dithiothreitol (DTT), 1 %(v/v) Protease Inhibitor Cocktail Set V [Calbiochem (EMD Millipore), Darmstadt, Germany], 1 %(v/v) Phosphatase Inhibitor Cocktail Set III [Calbiochem (EMD Millipore), Darmstadt, Germany], and 0.6 %(v/v) DMSO. For the kinase assay, the human S6K1 (RPS6KB1) protein, residues 1–421 with the T412E mutation, was purchased from Carna Biosciences (Kobe, Japan). […] The S6K1 protein (final concentration of 2 nM) in the reaction buffer was first incubated with different concentrations of the compounds (0–10 μM) for 30 min. After this pre-incubation step, a FAM-labeled substrate peptide, FL-Peptide 26 (5-FAM-ARKRERTYSFGHHA-COOH) (PerkinElmer, Waltham, MA), and ATP were added at final concentrations of 1.5 μM and 0.5 mM, respectively. The kinase reactions were performed at room temperature, and stopped by the addition of termination buffer [50 mM Hepes buffer (pH 7.4), containing 140 mM EDTA and 0.01 %(w/v) Brij-35]. The phosphorylated and unphosphorylated peptides thus obtained were separated and quantified with a Lab-Chip EZ Reader II (PerkinElmer, MA). Data were fitted using a sigmoidal dose–response regression algorithm in GraphPad Prism (GraphPad Software, La Jolla, CA).

The chains behind the UniProt entries cited, without tags or fusion partners. Residues count along the entry.
UniProt P23443, 1-421 T412E: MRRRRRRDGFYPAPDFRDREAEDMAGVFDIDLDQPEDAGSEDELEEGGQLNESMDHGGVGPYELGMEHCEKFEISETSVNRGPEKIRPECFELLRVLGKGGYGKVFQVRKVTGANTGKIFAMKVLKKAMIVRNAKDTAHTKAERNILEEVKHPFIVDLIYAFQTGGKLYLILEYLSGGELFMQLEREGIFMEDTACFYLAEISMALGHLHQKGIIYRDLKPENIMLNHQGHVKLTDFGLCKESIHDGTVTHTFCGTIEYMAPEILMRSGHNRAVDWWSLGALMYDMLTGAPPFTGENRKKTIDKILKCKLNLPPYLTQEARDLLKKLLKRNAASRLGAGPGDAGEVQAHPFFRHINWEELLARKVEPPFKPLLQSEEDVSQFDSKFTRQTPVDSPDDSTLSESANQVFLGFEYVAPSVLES

The term IC50 denotes the point on the concentration scale where inhibition reaches its midpoint.

On to `CCc1cncnc1N1CCN(Cc2nc3cc(C(F)(F)F)ccc3[nH]2)CC1` [PF-4708671, reference compound], for which the concentration for half-maximal inhibition (IC50) turned out to be 15 nM.

The record behind these values is paper PMC4125821, “Crystal structures of the S6K1 kinase domain in complexes with inhibitors” (Journal of Structural and Functional Genomics, 2014).
